Laboratory results reported in patent US10660932B2, “Drug combinations and methods to stimulate embryonic-like regeneration to treat diabetes and other diseases” (UNIVERSITY OF SOUTHERN CALIFORNIA, priority 2016, dated 2020).

Test system: STZ-treated mice

## CN(N=O)C(=O)N[C@H]1C(O)O[C@H](CO)[C@@H](O)[C@@H]1O (mixture of isomers) [STZ, streptozotocin]
5 days after STZ treatment (STZ BL)
  blood glucose (hyperglycemia): > 300 mg/dL
STZ 150 mg/kg, STZ BL (day 5)
  depletion of insulin-secreting β cells: about 85%
STZ-treated mice receiving the AL diet, days 30 and 50
  blood glucose: above 450 mg/dl
